Measured values reported in ChEMBL document CHEMBL5329202, “New aryl-/heteroarylpiperazine derivatives of 1,7-dimethyl-8,9-diphenyl-4-azatricyclo[5.2.1.02,6]dec-8-ene-3,5,10-trione: Synthesis and preliminary studies of biological activities” (Bioorg Med Chem, 2023).

The chains behind the UniProt entries cited, without tags or fusion partners.
UniProt P31390, whole entry: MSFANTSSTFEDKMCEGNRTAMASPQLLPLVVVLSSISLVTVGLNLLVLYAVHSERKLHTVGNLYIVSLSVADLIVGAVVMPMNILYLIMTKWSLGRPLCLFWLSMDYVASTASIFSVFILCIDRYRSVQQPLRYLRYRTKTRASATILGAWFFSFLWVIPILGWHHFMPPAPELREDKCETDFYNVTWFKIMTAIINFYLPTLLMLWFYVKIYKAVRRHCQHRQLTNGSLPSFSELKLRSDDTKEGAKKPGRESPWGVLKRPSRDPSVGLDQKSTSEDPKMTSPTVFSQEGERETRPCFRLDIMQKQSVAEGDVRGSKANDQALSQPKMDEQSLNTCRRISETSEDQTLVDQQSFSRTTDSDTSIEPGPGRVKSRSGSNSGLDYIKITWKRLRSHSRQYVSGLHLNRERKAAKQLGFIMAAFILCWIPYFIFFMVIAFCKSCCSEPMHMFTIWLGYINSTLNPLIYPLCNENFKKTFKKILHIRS

Molecular target: Histamine H1 receptor (Rattus norvegicus, UniProt P31390)
Assay: Displacement of [3H]pyrilamine from Sprague-Dawley rat H1 receptor assessed as inhibition constant measured after 30 mins by competitive binding assay

- Ki: 1 nM
Compound: CC(CN1c2ccccc2Sc2ccccc21)N(C)C (stereo unspecified) [PROMETHAZINE]
